Molecules are shown by their SMILES.

Sequences of proteins named here, by UniProt entry; tags and fusion partners are left off.
UniProt P14902, whole entry: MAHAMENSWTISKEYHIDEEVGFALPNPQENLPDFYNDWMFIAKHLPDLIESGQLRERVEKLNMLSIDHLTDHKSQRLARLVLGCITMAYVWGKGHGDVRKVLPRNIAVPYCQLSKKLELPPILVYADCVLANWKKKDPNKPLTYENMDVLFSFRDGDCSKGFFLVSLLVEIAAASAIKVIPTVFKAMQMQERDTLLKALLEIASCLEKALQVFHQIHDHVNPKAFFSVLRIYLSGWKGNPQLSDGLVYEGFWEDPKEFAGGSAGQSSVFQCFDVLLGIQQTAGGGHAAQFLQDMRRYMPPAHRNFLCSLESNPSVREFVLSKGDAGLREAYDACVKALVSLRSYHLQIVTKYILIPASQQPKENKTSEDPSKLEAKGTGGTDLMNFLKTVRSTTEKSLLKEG

Data on 28 compounds can be found in patent US12152019B2, “Arylalkyl pyrazole compounds as indoleamine 2,3-dioxygenase inhibitors” (Merck Sharp & Dohme LLC, priority 2018, dated 2024).

For the test, the target named is IDO1 (Homo sapiens, UniProt P14902). The experiment in a line: IDO1 Cellular Assay in HeLa Cells Stimulated with IFNγ. It is filed as cell-based. As to conditions: HeLa cells stimulated with IFNγ 100 ng/mL, 300 uM L-tryptophan, about 48 hours, fluorescence readout; read-out: HeLa Cell Potency, IC50.
As to `CC(=O)NC1CCN(C(=O)c2nn(CCC3CCN(c4nccnc4C)CC3)c3c2CCCC3)CC1` [Example 25, N-[1-[1-[2-[1-(3-methylpyrazin-2-yl)-4-piperidyl]ethyl]-4,5,6,7-tetrahydroindazole-3-carbonyl]-4-piperidyl]acetamide], the IC50 was 3.66 nM. Turning to `CC(=O)NC1CCN(C(=O)c2nn(CCC3CCN(c4cnc(C)c(C)c4)CC3)c3c2CCCC3)CC1` [Example 30, N-[1-[1-[2-[1-(5,6-dimethyl-3-pyridyl)-4-piperidyl]ethyl]-4,5,6,7-tetrahydroindazole-3-carbonyl]-4-piperidyl]acetamide], the IC50 stood at 39.8 nM. The value for `Cc1cccc(N2CCC(C(F)Cn3nc(C(=O)N4C[C@@H](C)O[C@@H](C)C4)c4c3CCC4)CC2)c1C` (single isomer, unassigned) [Example 47] was 73.6 nM; that for `Cc1ccc(Cl)c(O[C@H]2CC[C@H](CCn3nc(C(=O)N4CCN(C(=O)CO)CC4)c4c3CCC4)CC2)c1` [Example 59, 1-(4-(1-(2-((1r,4r)-4-(2-chloro-5-methylphenoxy)cyclohexyl)ethyl)-1,4,5,6-tetrahydrocyclopenta[c]pyrazole-3-carbonyl)piperazin-1-yl)-2-hydroxyethan-1-one] was 45.1 nM.

In the case of `CC(=O)NC1CCN(C(=O)c2nn(CCC3CCN(c4cccc(Cl)c4C)CC3)c3c2CCCC3)CC1` [Example 20, N-[1-[1-[2-[1-(3-chloro-2-methyl-phenyl)-4-piperidyl]ethyl]-4,5,6,7-tetrahydroindazole-3-carbonyl]-4-piperidyl]acetamide], the IC50 turned out to be 1.31 nM. With `CC(=O)NC1CCN(C(=O)c2nn(CC[C@H]3CC[C@@H](Oc4ncccc4C)CC3)c3c2[C@@H]2C[C@@H]2C3)CC1` [Example 93, N-{1-[(3bR,4aR)-1-(2-{cis-4-[(3-methylpyridin-2-yl)oxy]cyclohexyl}ethyl)-3b,4,4a,5-tetrahydro-1H-cyclopropa[3,4]cyclopenta[1,2-c]pyrazole-3-carbonyl]piperidin-4-yl}acetamide] the figure was 1.53 nM; with `Cc1c(F)ccc(C2CCC(CCn3nc(C(=O)N4CCC(F)(CO)CC4)c4c3CCC4)CC2)c1C` (single isomer, unassigned) [Example 52, (1-(2-(4-(4-fluoro-2,3-dimethylphenyl)cyclohexyl)ethyl)-1,4,5,6-tetrahydrocyclopenta[c]pyrazol-3-yl)(4-fluoro-4-(hydroxymethyl)piperidin-1-yl)methanone], 2.99 nM. `O=C(c1cccc(Cl)c1)N1CCC(CCn2nc(C(=O)N3CCC(O)CC3)c3c2CCC3)CC1` [Example 41, (1-(2-(1-(3-chlorobenzoyl)piperidin-4-yl)ethyl)-1,4,5,6-tetrahydrocyclopenta[c]pyrazol-3-yl)(4-hydroxypiperidin-1-yl)methanone]: the IC50 came out at 233 nM. The value for `Cc1c(Cl)cccc1OC1CCC(Cn2nc(C(=O)N3C[C@@H](C)O[C@@H](C)C3)c3c2CCC3)CC1` (single isomer, unassigned) [Example 55] was 68.3 nM. The value for `O=C(c1ccccc1)N1CCC(CCn2nc(C(=O)N3CCC(O)CC3)c3c2CCC3)CC1` [Example 42, [4-[2-[3-(4-hydroxypiperidine-1-carbonyl)-5,6-dihydro-4H-cyclopenta[c]pyrazol-1-yl]ethyl]-1-piperidyl]-phenyl-methanone] was 444 nM.

`Cc1cccnc1O[C@H]1CC[C@@H](CCn2nc(C(=O)N3CCC(OCCO)CC3)c3c2C[C@H]2C[C@@H]32)CC1` [Example 91, [4-(2-hydroxyethoxy)piperidin-1-yl][(3bR,4aR)-1-(2-{cis-4-[(3-methylpyridin-2-yl)oxy]cyclohexyl}ethyl)-3b,4,4a,5-tetrahydro-1H-cyclopropa[3,4]cyclopenta[1,2-c]pyrazol-3-yl]methanone]: the half-maximal inhibitory concentration (IC50) turned out to be 1.97 nM. Regarding `CC(=O)NC1CCN(C(=O)c2nn(CCC3CCN(c4ncc(C)cc4C)CC3)c3c2CCCC3)CC1` [Example 26, N-[1-[1-[2-[1-(3,5-dimethyl-2-pyridyl)-4-piperidyl]ethyl]-4,5,6,7-tetrahydroindazole-3-carbonyl]-4-piperidyl]acetamide], the IC50 came out at 6.23 nM. The value for `Cc1c(Cl)cccc1N1CCC(CCn2nc(C(=O)N3CCN(C(=O)CO)CC3)c3c2CCC3)CC1` [Example 12, 1-[4-[1-[2-[1-(3-chloro-2-methyl-phenyl)piperidin-1-ium-4-yl]ethyl]-5,6-dihydro-4H-cyclopenta[c]pyrazole-3-carbonyl]piperazin-1-yl]-2-hydroxy-ethanone] was 16.7 nM; that for `CC(=O)NC1CCN(C(=O)c2nn(CCC3CCN(c4ccc(C)nc4)CC3)c3c2CCCC3)CC1` [Example 29, N-[1-[1-[2-[1-(6-methyl-3-pyridyl)-4-piperidyl]ethyl]-4,5,6,7-tetrahydroindazole-3-carbonyl]-4-piperidyl]acetamide] was 22.7 nM; that for `Cc1c(Cl)cccc1N1CCC(O)(CCn2nc(C(=O)N3CC[C@@H](O)[C@@H](F)C3)c3c2C[C@H]2C[C@@H]32)CC1` [Example 98, ((3bR,4aR)-1-(2-(1-(3-chloro-2-methylphenyl)-4-hydroxypiperidin-4-yl)ethyl)-3b,4,4a,5-tetrahydro-1H-cyclopropa[3,4]cyclopenta[1,2-c]pyrazol-3-yl)((3 S,4R)-3-fluoro-4-hydroxypiperidin-1-yl)methanone] was 7.89 nM.

Consider `Cc1c(F)ccc(N2CCC(CCn3nc(C(=O)N4CCN(C(=O)CO)CC4)c4c3CCC4)CC2)c1C` [Example 11, 1-[4-[1-[2-[1-(4-fluoro-2,3-dimethyl-phenyl)piperidin-1-ium-4-yl]ethyl]-5,6-dihydro-4H-cyclopenta[c]pyrazole-3-carbonyl]piperazin-1-yl]-2-hydroxy-ethanone], for which the IC50 amounted to 12 nM. The value for `Cc1cccnc1O[C@H]1CC[C@@H](CCn2nc(C(=O)N3CC[C@H](O)[C@H](F)C3)c3c2C[C@H]2C[C@@H]32)CC1` [Example 83, [(3R,4S)-3-fluoro-4-hydroxypiperidin-1-yl] [(3bR,4aR)-1-(2-{cis-4-[(3-methylpyridin-2-yl)oxy]cyclohexyl}ethyl)-3b,4,4a,5-tetrahydro-1H-cyclopropa[3,4]cyclopenta [1,2-c]pyrazol-3-yl] methanone] was 0.883 nM; that for `Cc1c(Cl)cccc1O[C@H]1CC[C@@H](CCn2nc(C(=O)N3C[C@@H](C)O[C@@H](C)C3)c3c2CCC3)CC1` [Example 53, (1-(2-((1s,4S)-4-(3-chloro-2-methylphenoxy)cyclohexyl)ethyl)-1,4,5,6-tetrahydrocyclopenta[c]pyrazol-3-yl)((2R,6S)-2,6-dimethylmorpholino)methanone] was 3.27 nM. Regarding `CC(=O)NC1CCN(C(=O)c2nn(CC[C@H]3CC[C@@H](Oc4cnccc4C)CC3)c3c2CCC3)CC1` [Example 64, N-(1-(1-(2-((1s,4s)-4-((4-methylpyridin-3-yl)oxy)cyclohexyl)ethyl)-1,4,5,6-tetrahydrocyclopenta[c]pyrazole-3-carbonyl)piperidin-4-yl)acetamide], the IC50 came to 0.619 nM. With `CC(=O)NC1CCN(C(=O)c2nn(CCC3CCN(c4ccccc4C(F)(F)F)CC3)c3c2CCCC3)CC1` [Example 16, N-(1-(1-(2-(1-(2-(trifluoromethyl)phenyl)piperidin-4-yl)ethyl)-4,5,6,7-tetrahydro-1H-indazole-3-carbonyl)piperidin-4-yl)acetamide] the figure was 2.33 nM; with `CC(=O)NC1CCN(C(=O)c2nn(CC[C@H]3CC[C@@H](Oc4ccccc4Cl)CC3)c3c2CCC3)CC1` [Example 70, N-[1-[1-[2-[4-(2-chlorophenoxy)cyclohexyl]ethyl]-5,6-dihydro-4H-cyclopenta[c]pyrazole-3-carbonyl]-4-piperidyl]acetamide], 0.55 nM. As to `Cc1cccc(N2CCN(CCn3nc(C(=O)N4CCC(O)CC4)c4c3C[C@H]3C[C@@H]43)CC2)c1C` [Example 99, ((3bR,4aR)-1-(2-(4-(2,3-dimethylphenyl)piperazin-1-yl)ethyl)-3b,4,4a,5-tetrahydro-1H-cyclopropa[3,4]cyclopenta[1,2-c]pyrazol-3-yl)(4-hydroxypiperidin-1-yl)methanone], the half-maximal inhibitory concentration (IC50) turned out to be 33.8 nM. With `Cc1c(Cl)cccc1N1CCC(CCn2nc(C(=O)N3CCC(F)(CO)CC3)c3c2CCC3)CC1` [Example 10, [1-[2-[1-(3-chloro-2-methyl-phenyl)piperidin-1-ium-4-yl]ethyl]-5,6-dihydro-4H-cyclopenta[c]pyrazol-3-yl]-[4-fluoro-4-(hydroxymethyl)-1-piperidyl]methanone] the figure was 8.65 nM.

As to `CC(=O)NC1CCN(C(=O)c2nn(CCC3CCN(c4cccc(Cl)n4)CC3)c3c2CCCC3)CC1` [Example 38, N-[1-[1-[2-[1-(6-chloro-2-pyridyl)-4-piperidyl]ethyl]-4,5,6,7-tetrahydroindazole-3-carbonyl]-4-piperidyl]acetamide], the IC50 came out at 20.9 nM. With `CC(=O)NC1CCN(C(=O)c2nn(CCC3CCN(c4cccc(Cl)c4Cl)CC3)c3c2CCCC3)CC1` [Example 19, N-[1-[1-[2-[1-(2,3-dichlorophenyl)-4-piperidyl]ethyl]-4,5,6,7-tetrahydroindazole-3-carbonyl]-4-piperidyl]acetamide] the figure was 1.73 nM; with `CC(=O)NC1CCN(C(=O)c2nn(CC[C@H]3CC[C@@H](Oc4ncccc4C)CC3)cc2Br)CC1` [Example 71, N-(1-(4-bromo-1-(2-((1s,4s)-4-((3-methylpyridin-2-yl)oxy)cyclohexyl)ethyl)-1H-pyrazole-3-carbonyl)-piperidin-4-yl)acetamide], 13.3 nM; with `CC(=O)NC1CCN(C(=O)c2nn(CC[C@H]3CC[C@@H](Oc4ncccc4C)CC3)cc2C2CC2)CC1` [Example 74, N-(1-(4-cyclopropyl-1-(2-((1s,4s)-4-((3-methylpyridin-2-yl)oxy)cyclohexyl)ethyl)-1H-pyrazole-3-carbonyl)piperidin-4-yl)acetamide], 2.76 nM. With `O=C(c1nn(C[C@H]2C[C@H](Oc3ncccc3F)CCO2)c2c1[C@@H]1C[C@@H]1C2)N1CCC(O)CC1` [Example 79, 2,6-anhydro-1,3,5-trideoxy-4-O-(3-fluoropyridin-2-yl)-1-[(3bR,4aR)-3-(4-hydroxypiperidine-1-carbonyl)-3b,4,4a,5-tetrahydro-1H-cyclopropa[3,4]cyclopenta[1,2-c]pyrazol-1-yl]-D-erythro-hexitol] the figure was 9.78 nM.
